Only a part is listed here, and it is no random draw. Calls of active or inactive are those of the source.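 How the source made its calls: active means compounds that cut the enzyme signal by at least half of the control window in the single-dose screen; inactive means the rest.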

The chains behind the UniProt entries cited, without tags or fusion partners.
UniProt P24666, whole entry: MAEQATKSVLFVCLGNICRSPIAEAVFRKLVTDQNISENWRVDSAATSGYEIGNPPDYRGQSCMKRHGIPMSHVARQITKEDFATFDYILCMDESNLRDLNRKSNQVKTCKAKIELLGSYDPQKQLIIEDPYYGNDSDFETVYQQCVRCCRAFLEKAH

The results in this text go back to PubChem BioAssay AID651560 (Sanford-Burnham Center for Chemical Genomics, 2012).

For the test, the target named is Low molecular weight phosphotyrosine protein phosphatase (Homo sapiens) (UniProt P24666). Nature of the test: LMPTP phosphatase inhibitors, primary screen, biochemical, fluorescence intensity, uHTS (AID 651560).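 Further: plate controls were DMSO wells with enzyme plus substrate for no effect and substrate without enzyme for full effect.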 The settings on record: recombinant LMPTP-A, OMFP fluorogenic substrate, at 20 µM, hits give high values. In outline:
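Material: LMPTP-A; amount: 0.625 nM enzyme; doses: single 20 µM dose; times: reaction 50 min, room temperature, dark; technique: fluorescence intensity of OMFP turnover product; benchmarks: no-enzyme and uninhibited controls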
The inhibition is the relative decrease from the control value, in per cent. Regarding `CCN1CCC(Nc2ccc(Cl)cc2)CC1`, the inhibition is inactive: -3.02%.

Regarding `Cc1cc(N(CCCl)CCCl)ccc1C=O`, the inhibition is inactive: -1.55%.

Regarding `CCCN1CCC(Nc2cc(OC)cc(OC)c2)CC1`, the inhibition is inactive: -1.35%.

With `O=c1[nH]c2ccccc2n1C1CCN(C(c2ccccc2)c2nnnn2C2CCCC2)CC1` (stereo not drawn), the inhibition was inactive: 3.71%.

Consider `c1ccc(CN2CCC(Nc3ccccc3)CC2)cc1`, for which the inhibition is inactive: -0.0684%.

On to `CN(C)C1(CNC(=O)c2cccc(C#N)c2)CCCCC1`, for which the inhibition is inactive: -1.84%.

Regarding `CC(C)(C)n1nnnc1C(c1cccc2ccccc12)N1CCC(n2c(=O)[nH]c3ccccc32)CC1` (stereo not drawn), the inhibition is inactive: 6.57%.

`CC(C)(C)OC(=O)N1CCC(N(C(=O)c2ccccc2)c2ccc(Cl)cc2)CC1`: the inhibition was inactive: 1.72%.

Take `N#Cc1ccc(C(=O)NCC2(N3CCCCC3)CCCCC2)cc1`: the inhibition was inactive: -2.07%.

`N/C(=N\O)c1c(N)no[n+]1[O-]`: the inhibition is inactive: -2.78%.

As for `COc1cccc(C(c2nnnn2C(C)(C)C)N2CCC(n3c(=O)[nH]c4ccccc43)CC2)c1OC` (stereo not drawn), the inhibition is inactive: 6.31%.

With `CCOC(=O)N1CCC(Nc2ccc(C)cc2)CC1`, the inhibition is inactive: -3.22%.

On to `CCCCn1nnnc1C(c1cccc(OC)c1OC)N1CCC(n2c(=O)[nH]c3ccccc32)CC1` (stereo not drawn), for which the inhibition was inactive: 5.21%.

Consider `O=c1[nH]c2ccccc2n1C1CCN(C(c2cccs2)c2nnnn2C2CCCC2)CC1` (stereo not drawn), for which the inhibition is inactive: 3.79%.

As to `O=C(OC1CN2CCC1CC2)C1c2ccccc2C=Cc2ccccc21` (stereo not drawn), the inhibition is inactive: 0.122%.

Turning to `O=C(NCC1(N2CCOCC2)CCCCC1)c1cc(Br)ccc1Cl`, the inhibition was inactive: 0.161%.

`COc1cc(C(=O)NCC2(N3CCOCC3)CCCCC2)cc(OC)c1C`: the inhibition is inactive: -0.733%.

On to `CCCCn1nnnc1C(c1ccccc1)N1CCC(n2c(=O)[nH]c3ccccc32)CC1` (stereo not drawn), for which the inhibition was inactive: 2.42%.

Take `O=c1[nH]c2ccccc2n1C1CCN(C(c2ccnc3ccccc23)c2nnnn2C2CCCC2)CC1` (stereo not drawn): the inhibition is inactive: 7.36%.

For the compound `COc1ccc(C(=O)NCC2(N3CCOCC3)CCCCC2)cc1OC`, the inhibition was inactive: -0.564%.

As to `O=c1[nH]c2ccccc2n1C1CCN(C(c2cccs2)c2nnnn2C2CCCCC2)CC1` (stereo not drawn), the inhibition is inactive: 3.79%.

On to `CCC(CO)(C(=O)OC1CN2CCC1CC2)c1ccccc1` (stereo not drawn), for which the inhibition was inactive: -0.335%.

On to `COc1cccc(C(=O)N(c2cc(C)cc(C)c2)C2CCN(C(=O)OC(C)(C)C)CC2)c1`, for which the inhibition was inactive: 1.86%.

`COc1cccc(C(c2nnnn2C2CCCC2)N2CCC(n3c(=O)[nH]c4ccccc43)CC2)c1OC` (stereo not drawn): the inhibition is inactive: 5.15%.

As for `COc1cc(OC)cc(C(=O)NCC2(N3CCOCC3)CCCCC2)c1`, the inhibition was inactive: -0.307%.

As to `CN1CCC(Nc2ccc(Cl)cc2)CC1`, the inhibition is inactive: -5.21%.

For `CN1CCC(Nc2ccc(F)c(Cl)c2)CC1`, the inhibition was inactive: -3.84%.

As to `CCOc1ncccc1C(=O)NCC1(N2CCOCC2)CCCCC1`, the inhibition was inactive: -1.22%.

For `CCCOc1ccc(C(=O)NCC2(N(C)C)CCCCC2)cc1`, the inhibition is inactive: 0.685%.

On to `O=c1[nH]c2ccccc2n1C1CCN(C(c2cc3ccccc3o2)c2nnnn2C2CCCC2)CC1` (stereo not drawn), for which the inhibition is inactive: 4.64%.

As for `NN(c1ccccc1)C1CCN(CCc2ccccc2)CC1`, the inhibition was inactive: -0.556%.

With `O=C(O)C1(Nc2ccccc2)CCN(Cc2ccccc2)CC1`, the inhibition is inactive: -0.343%.

For the compound `CC(C)(C)OC(=O)N1CCC(Nc2ccccc2)CC1`, the inhibition was inactive: -0.532%.

For the compound `CC(C)(C)n1nnnc1C(c1ccnc2ccccc12)N1CCC(n2c(=O)[nH]c3ccccc32)CC1` (stereo not drawn), the inhibition is inactive: 8.87%.

Take `CCN1CCC(Nc2cccc(F)c2)CC1`: the inhibition is inactive: -2.32%.

In the case of `COc1ccc(C(c2nnnn2C2CCCCC2)N2CCC(n3c(=O)[nH]c4ccccc43)CC2)cc1` (stereo not drawn), the inhibition was inactive: 4.97%.

As to `Cc1ccccc1NC1(C#N)CCN(Cc2ccccc2)CC1`, the inhibition was inactive: -1.54%.

As for `Cn1c(=O)[nH]cc(N(CCCl)CCCl)c1=O`, the inhibition is inactive: -1.11%.

Take `CN(C)c1ccc(C(=O)NCC2(N3CCCCC3)CCCCC2)cc1`: the inhibition was inactive: 0.258%.

With `O=C(NCC1(N2CCCCC2)CCCCC1)c1ccco1`, the inhibition was inactive: -1.68%.

For the compound `O=c1[nH]c2ccccc2n1C1CCN(C(c2ccnc3ccccc23)c2nnnn2C2CCCCC2)CC1` (stereo not drawn), the inhibition was inactive: 8.47%.

On to `COc1cc(OC)cc(C(=O)NCC2(N3CCCCC3)CCCCC2)c1`, for which the inhibition is inactive: -0.396%.

Consider `CCC(c1nnnn1C1CCCCC1)N1CCC(n2c(=O)[nH]c3ccccc32)CC1` (stereo not drawn), for which the inhibition is inactive: 3.34%.

For `CC(=O)N(c1ccccc1)C1CCNCC1`, the inhibition was inactive: -0.791%.

As for `COc1cccc(C(c2nnnn2C2CCCCC2)N2CCC(n3c(=O)[nH]c4ccccc43)CC2)c1OC` (stereo not drawn), the inhibition was inactive: 5.77%.

As for `Cc1ccc(NC2(C#N)CCN(Cc3ccccc3)CC2)cc1`, the inhibition was inactive: -0.418%.

Take `Fc1ccccc1NC1CCN(Cc2ccccc2)CC1`: the inhibition is inactive: -0.942%.

For the compound `Cc1ccc(C(=O)NCC2(N3CCCCC3)CCCCC2)o1`, the inhibition was inactive: 0.502%.
